scFv variants of Ab-14 (light chain) against a SARS-CoV-2 spike peptide

The target is the same throughout: PDVDLGDISGINAS, from the HR2 region of SARS-CoV-2 spike.

Parent scFv Ab-14: VH joined to VL by the linker GGGGSGGGGSGGGGS. Changes lie in the light chain CDRs alone.
VH: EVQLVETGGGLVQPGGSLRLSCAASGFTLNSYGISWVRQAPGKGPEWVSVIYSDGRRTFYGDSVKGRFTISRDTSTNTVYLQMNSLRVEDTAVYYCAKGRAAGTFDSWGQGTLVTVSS
VL: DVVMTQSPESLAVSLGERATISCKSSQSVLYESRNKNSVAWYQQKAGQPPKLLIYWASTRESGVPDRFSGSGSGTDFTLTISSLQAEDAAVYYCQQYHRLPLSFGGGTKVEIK

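The parent was found by panning a naive human phage display library on the peptide. This is the validation round: designs drawn from the data on random variants, tested in the same kind of assay. Group labels follow the data file (En: ensemble of fine-tuned language models; GP: Gaussian process model; HC: hill climbing; Gen: genetic algorithm; Gibbs: Gibbs sampling; a sequence that several methods proposed may carry one label only). In AlphaSeq, yeast of one mating type display the scFv and yeast of the other type display the target. After mating in shaken culture at 30 °C for 16 h, diploids were selected and their barcode pairs sequenced. A regression on co-assayed BCL2-family reference pairs converts the normalised counts of each replicate to an apparent Kd. Mating was done six times.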

Each variant is given by its three light chain CDRs, as the data file delimits them; those of the parent are KSSQSVLYESRNKNSVA, WASTRES, QQYHRLPLS.
Variants here have more than six changes.
The Kd shown is the geometric mean over detected replicates; a lower Kd is a better binder.
Where no diploid with the target was found in any replicate, the entry reads "nd": below detection, most likely a poor binder, though not proof of it.
Of ten entries with the parent sequence, four were seen in most replicates (averages 2.2 nM to 240 nM), three in one and three in none, so single entries are noisy.

The variant SIAGTLHFNQSGGSNVA | EVQMREQ | QQYFRLPLG [En_Gibbs] showed 130 nM (6 of 6 replicates).
The variant SFDLTKSGMENERYSIA | ERSVLMT | QDYHRLPLA [En_Gibbs] showed nd (0 of 6 replicates).
The variant KIQQSVYYESLNQNSVA | NASTRLQ | QQYHRLPLS [GP_Gibbs] showed 3.3 nM (6 of 6 replicates).
The variant MISQLYNMGQFAINSVA | QASQRNE | QQYDRLPLT [En_Gen] showed 58 nM (6 of 6 replicates).
The variant KIGSTLNQMMHKKNNVA | DLVTREN | QQYGRLPLS [En_Gen] showed 3.0 nM (6 of 6 replicates).
The variant KLMQEMWYESRNKNSVA | HASEREQ | QQYHRLPLQ [GP_Gibbs] showed 930 pM (6 of 6 replicates).
The variant MLDQMDGQMGGNGNNIA | DVNENRI | QQYHRLPLS [En_Gibbs] showed 800 pM (6 of 6 replicates).
The variant KLSQWQWGESRNKNSVA | SASTRCS | QQYHRLPLS [GP_Gibbs] showed 1.6 nM (6 of 6 replicates).
The variant TLMHHQDYYGEEKKSIA | NAIIKNE | QQYSRLPLA [En_Gibbs] showed 4.2 nM (6 of 6 replicates).
The variant KLMNSLGAFKQWEDNVA | EVEHKVA | QQYQHLPLT [En_Gibbs] showed 20 nM (6 of 6 replicates).
The variant KIGMTLNQLMHQKNNVA | DLVMREN | QQYHRLPLS [En_Gen] showed 1.7 nM (6 of 6 replicates).
The variant TIGSTLMYGMRNRSNVA | EVSERLN | QQYDRLPLI [En_Gen] showed 130 nM (6 of 6 replicates).
The variant MISEMMHMIGARKNSIA | DLVMRAN | QQYHRLPLS [En_Gen] showed 21 nM (6 of 6 replicates).
The variant MISQMYNMGQFAINSVA | QASQRNE | QQYDRLPLM [En_Gen] showed 6.4 nM (6 of 6 replicates).
The variant KLSMVTGHMSMSRNNVA | EMETREN | QQYDRLPLS [En_Gen] showed 4.1 nM (6 of 6 replicates).
The variant TLYGLSMSMAKNKNNVA | EMTTREK | QQYDRLPLQ [En_Gen] showed 11 nM (6 of 6 replicates).
The variant KIYGYMGTITRQANSIA | DNTTREN | QQYNRLPLS [En_Gen] showed nd (0 of 6 replicates).
The variant KLLQTVMNGRYNRNNVA | HMTMRED | QQYFRLPLS [En_HC] showed 30 nM (6 of 6 replicates).
The variant MISLCQNGYYDQNNSIA | DRNERAM | QQYGRLPLV [En_Gibbs] showed nd (0 of 6 replicates).
The variant MISQVLNTLTRTGNNVA | DLAEREQ | QQYFRLPLS [En_Gen] showed 42 nM (6 of 6 replicates).
The variant KLGSVTSYEMQNKNSVA | QMTTRES | QQYHRLPLS [En_HC] showed 1.0 nM (6 of 6 replicates).
The variant QLLMATMQETYSKNSVA | HAETRED | QSYHRLPLS [En_HC] showed 4.3 nM (6 of 6 replicates).
The variant KISQMVRVGATHNNSIA | EEATRAK | QQYHRLPLA [En_Gen] showed 120 nM (5 of 6 replicates).
The variant HFSQHTMEEMSQNKAVA | EVTTTMT | QQYARLPFI [En_Gibbs] showed 4.7 nM (6 of 6 replicates).
The variant KCSQSVWQEERQKNSVA | NASQRLQ | QQYHRLPLS [GP_Gibbs] showed 6.4 nM (6 of 6 replicates).
The variant KQSQSEGGESRNMNNVA | HASQRES | QQYHRLPLS [GP_Gibbs] showed 1.3 nM (6 of 6 replicates).
The variant KWRQSVDGESRNKNSVA | QASQREQ | QQYHRLPLS [GP_Gibbs] showed 1.6 nM (6 of 6 replicates).
The variant KCSQSVWQEERQKNSVA | NASQREQ | QQYHRLPLS [GP_Gibbs] showed 49 nM (6 of 6 replicates).
The variant IVSQSVLGESRNINSVA | QTSERNY | QQYDRLPLS [En_HC] showed 5.7 nM (6 of 6 replicates).
The variant MISQIINMGQFAINSVA | QASLRCN | QQYDRLPLM [En_Gen] showed 3.2 nM (6 of 6 replicates).
The variant MLSEVLHMLGVKKNSIA | DLVLRAN | QQYHRLPLG [En_Gen] showed 64 nM (1 of 6 replicates).
The variant TMNMELIYGVPMMNNVA | AGSQKLA | QQYYRLPLS [En_Gibbs] showed 1.3 nM (6 of 6 replicates).
The variant ILDQSHLYESRNKNSVA | NANTREQ | QQYHRLPLS [GP_Gibbs] showed 710 pM (6 of 6 replicates).
The variant KISGMYQKESKNKNSVA | EMVNREY | QQYDRLPLS [En_HC] showed 1.4 nM (6 of 6 replicates).
The variant QLEVERGQEWKNGAAIA | GNTESLH | QQYAMLPLS [En_Gibbs] showed 2.2 nM (6 of 6 replicates).
The variant KISSLTMYESVAKNNIA | EMSTRPS | QSYHRLPLS [En_HC] showed 4.4 nM (6 of 6 replicates).
The variant KLTGITGLEKVHGNNVA | EMETREK | QQYNRLPLS [En_Gen] showed 3.3 nM (6 of 6 replicates).
The variant KISQMVNYESTHINAVA | QMSTREE | QQYFRLPLS [En_HC] showed 5.1 nM (6 of 6 replicates).
The variant HMSMITLMGSRNRNSVA | QMTTREN | QQYDRLPLA [En_Gen] showed 11 nM (6 of 6 replicates).
The variant KLSMSVQYEARMKNSVA | EASTRED | QQYHRLPLS [GP_Gibbs] showed 1.1 nM (6 of 6 replicates).

For reference, 5 entries of the list once more:

| CDR-L1 | CDR-L2 | CDR-L3 | group | Kd (apparent) | detected |
|---|---|---|---|---|---|
| MISQLYNMGQFAINSVA | QASQRNE | QQYDRLPLT | En_Gen | 58 nM | 6 of 6 |
| KLGSVTSYEMQNKNSVA | QMTTRES | QQYHRLPLS | En_HC | 1.0 nM | 6 of 6 |
| ILDQSHLYESRNKNSVA | NANTREQ | QQYHRLPLS | GP_Gibbs | 710 pM | 6 of 6 |
| KLTGITGLEKVHGNNVA | EMETREK | QQYNRLPLS | En_Gen | 3.3 nM | 6 of 6 |
| TIGSTLMYGMRNRSNVA | EVSERLN | QQYDRLPLI | En_Gen | 130 nM | 6 of 6 |

The range of this assay differs from that of the first round, and the authors advise against merging the two.
Three control strains display no target. For all light chain designs, 4% of the pairings with them gave a signal, with a median of 430 nM and one signal in twenty below 38 nM, so weak values seen in few replicates may be background.
The authors' rule: three or more of the six replicates give a measured affinity, fewer mean a poor binder.

Source: Li et al. 2023 (doi:10.1038/s41467-023-39022-2), MIT Lincoln Laboratory and A-Alpha Bio; data file from the FLAb repository.